How the values were obtained:
LmPTR1 = target: T1, LmPTR1 (Leishmania major, UniProt Q01782); test: biochemical
T1 construct: made in house
T1 sequence (Q01782 1-288): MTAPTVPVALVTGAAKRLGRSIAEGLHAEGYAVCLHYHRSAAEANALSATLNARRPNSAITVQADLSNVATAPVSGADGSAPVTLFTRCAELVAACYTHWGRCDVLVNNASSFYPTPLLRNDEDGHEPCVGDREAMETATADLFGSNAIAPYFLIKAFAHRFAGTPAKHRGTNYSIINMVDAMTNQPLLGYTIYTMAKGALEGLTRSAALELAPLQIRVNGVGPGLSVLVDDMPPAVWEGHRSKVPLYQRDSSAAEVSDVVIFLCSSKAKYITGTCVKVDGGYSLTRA

PTR1 = target: T2, PTR1 (UniProt Q01782); conditions: read-out: PTR1 Ki (third value of three-value lines); species column (Lm or Tc) not resolvable
T2 sequence (Q01782 1-288): T1 sequence (Q01782 1-288)

Question: How did the Ki (LmPTR1) turn out when `COC(=O)C1CCN(C(=O)c2ccc(N(C)Cc3cnc4nc(N)nc(N)c4n3)cc2)CC1` was run?
Answer: 37 nM

Question: Which Ki (PTR1) does the source give for `CCOC(=O)CN(Cc1cnc2nc(N)nc(N)c2n1)c1ccc(C(=O)N2CCC(C(=O)OC)CC2)cc1` here?
Answer: 100 nM

Question: How did the Ki (PTR1) turn out when `COC(=O)C1CCN(C(=O)c2ccc(N(CCO)Cc3cnc4nc(N)nc(N)c4n3)cc2)CC1` was run?
Answer: 30 nM

Source: US20100305134A1, “SPECIFIC INHIBITORS OF PTERIDINE REDUCTASE WITH ANTIPARASITIC ACTION” (priority 2007, published 2010)
